This data set has as its system Kidney. In words: Induction of HO-1 protein level in po dosed Wistar rat kidney measured at 6 hrs by ELISA. It counts as ADME, organism-based. To be noted: in vivo, dose 0.1-3 mg/kg.

Two compounds from ChEMBL document CHEMBL5518210 (J Med Chem, 2024) can be followed below.

The structures appear in SMILES notation.

In the case of `CCOc1cccnc1Cc1ccc([C@H](F)C(=O)N[C@H](c2ccc(C)cc2)[C@@H](C)C(=O)O)cc1`, the Activity entry was “Dose-Dependent Effect”.
Regarding `Cc1ccc([C@H](F)C(=O)N[C@H](c2ccc(C)c(OCC3(C#N)CC3)c2)[C@@H](C)C(=O)O)cc1`, the Activity result was “Dose-Dependent Effect”.
